According to PubChem BioAssay AID1012 (Sanford-Burnham Center for Chemical Genomics, 2008):
This is a selection; strong and weak results do not stand in their true shares. The source made the active and inactive calls.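 How the source made its calls: active means tissue-nonspecific alkaline phosphatase inhibition above about 50% at 20 µM in the single-dose screen (limit read from the data); inactive means the rest.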

Chains of the proteins cited; added tags and fusions are not shown.
UniProt P05186, whole entry: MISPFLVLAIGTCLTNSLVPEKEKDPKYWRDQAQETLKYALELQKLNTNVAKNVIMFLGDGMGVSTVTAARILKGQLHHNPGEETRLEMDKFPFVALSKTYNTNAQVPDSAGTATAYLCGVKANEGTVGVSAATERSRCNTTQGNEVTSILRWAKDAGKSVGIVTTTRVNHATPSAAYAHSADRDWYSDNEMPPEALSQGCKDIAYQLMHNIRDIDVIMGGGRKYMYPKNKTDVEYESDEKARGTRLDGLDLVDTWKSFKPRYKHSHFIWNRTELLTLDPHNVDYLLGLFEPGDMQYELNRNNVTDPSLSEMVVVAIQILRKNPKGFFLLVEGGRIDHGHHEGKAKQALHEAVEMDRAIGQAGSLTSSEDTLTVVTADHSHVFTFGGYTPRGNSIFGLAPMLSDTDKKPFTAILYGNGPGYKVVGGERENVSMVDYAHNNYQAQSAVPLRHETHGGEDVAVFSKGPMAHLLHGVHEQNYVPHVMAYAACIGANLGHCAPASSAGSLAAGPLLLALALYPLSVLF

The compounds below were run against Alkaline phosphatase, tissue-nonspecific isozyme (Homo sapiens) (UniProt P05186) (assay: human TNAP enzyme inhibitors, primary screen, biochemical, luminescent, no phosphate acceptor, uHTS (AID 1012;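 further: 0% = DMSO negative control and 100% = EDTA positive control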)). Details: purified TNAP, CDP-star luminescence, 30 min; at 20 µM; active compounds read high.
For `COc1ccc(CN(CCCl)CCCl)cc1Cl`, the inhibition was inactive: -0.9%.
For `CN(C)c1cccc(C(=O)NCC2(N3CCCCC3)CCCCC2)c1`, the inhibition was inactive: -5.9%.
For `CC(C)c1ccc(NC2CCN(C(=O)OC(C)(C)C)CC2)cc1`, the inhibition was inactive: -11.9%.
With `O=C(NCC1(N2CCCCC2)CCCCC1)c1cccc([N+](=O)[O-])c1` the inhibition was inactive: -5.3%.
In the case of `N#CC1(Nc2ccccc2)CCN(CCc2ccccc2)CC1`, the inhibition is reported as inactive: -13.4%.
`COc1ccc(NC2CCN(C(=O)OC(C)(C)C)CC2)cc1` was tested, and the inhibition was inactive: -4.9%.
For `CN1CCN(CCOC(=O)C(O)(c2ccccc2)c2ccccc2)CC1`, the inhibition was inactive: 0.8%.
`O=C(NCC1(N2CCOCC2)CCCCC1)c1cc(=O)[nH]c2ccccc12` was tested, and the inhibition was inactive: -10.8%.
In the case of `COc1ccc(NC2CCN(CCc3ccccc3)CC2)c(OC)c1`, the inhibition is reported as inactive: -6.8%.
For `COc1ccc(C(=O)NCC2(N3CCCCC3)CCCCC2)c(OC)c1OC`, the inhibition was inactive: -9.9%.
In the case of `CCOC(=O)N1CCC(Nc2ccc(OC)cc2)CC1`, the inhibition is reported as inactive: -3.6%.
In the case of `O=C(OC1CN2CCC1CC2)C1c2ccccc2Oc2ccccc21` (stereo not given), the inhibition is reported as inactive: -5.2%.
With `O=C(NCC1(N2CCOCC2)CCCCC1)c1cc2ccccc2o1` the inhibition was inactive: -4.8%.
`CC(C)(C)OC(=O)N1CCC(Nc2ccccc2)CC1` was tested, and the inhibition was inactive: -9.9%.
With `CCOc1ncccc1C(=O)NCC1(N2CCOCC2)CCCCC1` the inhibition was inactive: -5.8%.
With `CCC(CO)(C(=O)OC1CN2CCC1CC2)c1ccccc1` (stereo not given) the inhibition was inactive: -4.7%.
In the case of `COc1cc(OC)cc(C(=O)NCC2(N3CCOCC3)CCCCC2)c1`, the inhibition is reported as inactive: -7.8%.
In the case of `Fc1ccccc1NC1CCN(Cc2ccccc2)CC1`, the inhibition is reported as inactive: -5.2%.
For `CN(C)c1ccc(C(=O)NCC2(N3CCCCC3)CCCCC2)cc1`, the inhibition was inactive: -13.6%.
With `CCN1CCC(Nc2cccc(F)c2)CC1` the inhibition was inactive: -8.1%.
For `N#Cc1ccc(C(=O)NCC2(N3CCCCC3)CCCCC2)cc1`, the inhibition was inactive: -0.3%.
In the case of `c1ccc(CN2CCC(Nc3ccccc3)CC2)cc1`, the inhibition is reported as inactive: -9.1%.
For `COc1ccc(C(=O)NCC2(N3CCOCC3)CCCCC2)cc1OC`, the inhibition was inactive: -11.9%.
With `O=C(OC1CN2CCC1CC2)C1c2ccccc2C=Cc2ccccc21` (stereo not given) the inhibition was inactive: -0.9%.
`N/C(=N\O)c1c(N)no[n+]1[O-]` was tested, and the inhibition was inactive: -16.4%.
